Data as given in patent publication US10494365B2, “Small molecule inhibitor of 3-phosphoglycerate dehydrogenase and uses thereof” (The Scripps Research Institute, priority 2015, dated 2019).

Legend:
Carney cells = test: Acute drug treatment with 13C6-glucose tracing (GCMS, LC-MS/MS); assay type: cell-based; conditions: 3-hour compound treatment
[1] = system: three lines sensitive to serine withdrawal; conditions: serine replete media

CCOC(=O)c1sc(NC(=O)c2ccco2)c(SC#N)c1C [Compound (1), Ethyl 5-(furan-2-carboxamido)-3-methyl-4-thiocyanatothiophene-2-carboxylate]
decrease of de novo serine synthesis (Carney cells): 30%
effect on growth [1]: no effect
